Target: Dipeptidyl peptidase 4 (Mus musculus, UniProt P28843)
Test: Inhibition of DPP4 in C57BL/6 mouse serum pre-incubated for 5 mins followed by Gly-Pro-7-AMC substrate addition by fluorescence based assay
Type: cell-free

The chains behind the UniProt entries cited, without tags or fusion partners. Where a name states a change or a piece, a line headed by the entry shows the natural chain unless it says otherwise.
UniProt P28843: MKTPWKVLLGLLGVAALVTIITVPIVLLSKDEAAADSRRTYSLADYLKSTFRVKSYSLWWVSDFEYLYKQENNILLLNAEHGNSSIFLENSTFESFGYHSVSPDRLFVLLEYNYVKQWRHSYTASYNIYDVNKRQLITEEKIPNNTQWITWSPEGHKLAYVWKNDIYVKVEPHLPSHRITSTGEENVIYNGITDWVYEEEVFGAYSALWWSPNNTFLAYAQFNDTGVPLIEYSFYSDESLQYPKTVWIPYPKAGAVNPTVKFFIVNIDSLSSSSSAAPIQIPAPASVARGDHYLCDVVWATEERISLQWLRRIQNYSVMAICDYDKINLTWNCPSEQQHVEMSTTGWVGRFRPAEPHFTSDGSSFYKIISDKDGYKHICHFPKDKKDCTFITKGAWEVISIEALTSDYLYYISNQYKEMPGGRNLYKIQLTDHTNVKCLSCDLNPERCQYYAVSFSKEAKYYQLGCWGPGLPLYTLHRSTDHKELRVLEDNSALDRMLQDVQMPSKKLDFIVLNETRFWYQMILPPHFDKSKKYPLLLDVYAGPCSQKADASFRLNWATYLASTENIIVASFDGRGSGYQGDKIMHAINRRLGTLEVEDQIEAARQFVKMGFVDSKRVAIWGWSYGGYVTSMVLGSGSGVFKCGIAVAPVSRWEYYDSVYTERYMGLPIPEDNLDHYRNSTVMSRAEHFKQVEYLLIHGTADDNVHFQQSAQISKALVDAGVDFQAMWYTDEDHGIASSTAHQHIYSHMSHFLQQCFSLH

**Q.** With `N[C@@H](CC(=O)N1CCn2c(nnc2C(F)(F)F)C1)Cc1cc(F)c(F)cc1F` [SITAGLIPTIN] as the compound, how does the IC50 read?
**A.** Its IC50 is 14.7 nM.
